Reference: paper PMC9922763

Molecular target: synthetic IAPP, used as monomer and as sonicated preformed fibrils (seeds) (UniProt P10997)

recombinant alpha-synuclein (aSyn), used as monomer and as sonicated preformed fibrils (seeds) (from UniProt P37840 1-140) (natural protein)
lag phase of ThT fibril formation of 2.5 µM monomeric IAPP after adding aSyn seeds corresponding to 500 nM monomeric peptide (240 min without seeds); PBS pH 7.4, 37°C: 80 min
